# Assay results published in US4980377A, “1-(aminophenyl)-2-aminopropanone derivatives” (Laboratoire L. Lafon, priority 1984, dated 1990).
# Test system: nigrostriatal dopaminergic system
# Assay: Interaction with alpha-methyltyrosine on stereotypies (difference from amphetamine)
# Conditions: α-methyltyrosine (catecholamine synthesis blocked)
smiles,measurement,value
CC(NC(C)(C)C)C(=O)c1ccc(N)cc1 (stereo not shown) [CRL 41 178],Effect of alpha-methyltyrosine on the stereotypies induced by the substance,at least partially involved in the mechanism which underlies the stereotypies induced by CRL 41 178
